Measurements taken from ChEMBL document CHEMBL5724801, “EUbOPEN Chemogenomics Library - Multiplex” (2024).
Values joined by “and” are separate entries in the source; they are usually repeats but may differ in a detail not shown here. Equal entries are not always repeated.

Legend:
Assay type in all cases: toxicity, cell-based
Fibroblast = test: Multiplex assay against human fibroblast
HEK-293T = test: Multiplex assay against HEK293T; conditions: human
U2OS = test: Multiplex assay against U2OS; conditions: human, 0 h, 10 µM, compound concentration 10 uM
[1] = 0 h, 1 µM, compound concentration 1 uM
[2] = 0 h, 10 µM, compound concentration 10 uM
[3] = 12 h, 1 µM, compound concentration 1 uM
[4] = 12 h, 10 µM, compound concentration 10 uM
[5] = 24 h, 1 µM, compound concentration 1 uM
[6] = 24 h, 10 µM, compound concentration 10 uM
[7] = 48 h, 1 µM, compound concentration 1 uM
[8] = 48 h, 10 µM, compound concentration 10 uM

In the case of `CNC[C@H](O)c1ccc(O)c(O)c1` [EPINEPHRINE], the “Total Cell Count” value (Fibroblast; [1]) is reported as 123 and 150, the “Total Cell Count” value (Fibroblast; [2]) is reported as 146 and the “Total Cell Count” value (Fibroblast; [3]) is reported as 135 and 119. For the same compound, the “Total Cell Count” value (Fibroblast; [4]) was 142, the “Total Cell Count” value (Fibroblast; [5]) was 132 and 126 and the “Total Cell Count” value (Fibroblast; [6]) was 169 and 143. For the same compound, the “Total Cell Count” value (Fibroblast; [7]) was 135 and 126, the “Total Cell Count” value (Fibroblast; [8]) was 168 and 153 and the “Total Cell Count” value (HEK-293T; [1]) was 314 and 249. The “Total Cell Count” value (HEK-293T; [2]) was 228 and 218, the “Total Cell Count” value (HEK-293T; [3]) was 475 and the “Total Cell Count” value (HEK-293T; [4]) was 272 and 244. The “Total Cell Count” value (HEK-293T; [5]) was 648 and 482, the “Total Cell Count” value (HEK-293T; [6]) was 315 and 293 and the “Total Cell Count” value (HEK-293T; [7]) was 1107 and 678. The “Total Cell Count” value (HEK-293T; [8]) was 486 and 312 and the “Total Cell Count” value (U2OS) was 175.
